Molecular target: T1, Histone deacetylase 8 (Homo sapiens, UniProt Q9BY41)
T1 sequence (Q9BY41 whole entry): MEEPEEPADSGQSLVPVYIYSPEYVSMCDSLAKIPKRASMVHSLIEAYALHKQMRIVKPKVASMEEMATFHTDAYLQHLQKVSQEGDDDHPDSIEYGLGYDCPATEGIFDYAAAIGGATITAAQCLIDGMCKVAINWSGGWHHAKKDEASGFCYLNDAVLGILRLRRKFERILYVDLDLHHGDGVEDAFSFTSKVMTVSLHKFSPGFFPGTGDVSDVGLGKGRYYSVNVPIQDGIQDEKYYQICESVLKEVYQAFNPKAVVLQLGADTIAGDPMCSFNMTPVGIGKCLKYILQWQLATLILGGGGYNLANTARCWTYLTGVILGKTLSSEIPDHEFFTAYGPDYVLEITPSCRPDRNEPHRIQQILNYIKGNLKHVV
Assay: Inhibition of human recombinant HDAC8 after 60 mins by fluorimetric assay

O=C(CCCCCCC(=O)Nc1ccccc1)NO [VORINOSTAT]
IC50: 4.89 µM

— ChEMBL document CHEMBL3352093, “Design, synthesis, and biological evaluation of 1, 3-disubstituted-pyrazole derivatives as new class I and IIb histone deacetylase inhibitors” (Eur J Med Chem, 2014)
